Experimental data reported in patent US20100260668A1.

Biological target: EGFR on A431 cells (human) (UniProt P00533)
Assay: cell-based or functional assay

Substance: AB033 (anti-EGFR (seq. 2) parent antibody)
- Inhibition Of A431 Proliferation (% Inhibition At 2.4 nM Ab/DVD): 14%
- Inhibition Of A431 Proliferation (% Inhibition At 21.6 nM Ab/DVD): 49%
- Inhibition Of EGFR Phosphorylation (% Inhibition At 60 nM Ab/DVD): 54%
